{"source": "ChEMBL document CHEMBL1133846", "about": "“The discovery of anthranilic acid-based MMP inhibitors. Part 3: incorporation of basic amines” (Bioorg Med Chem Lett, 2001)", "target": "Collagenase 3 (Homo sapiens, UniProt P45452)", "assay": "In vitro inhibition of Matrix metalloprotease-13."}
{"smiles": "COc1ccc(S(=O)(=O)N(Cc2cccnc2)c2c(C)cccc2C(=O)NO)cc1", "values": [{"measurement": "IC50", "result": 0.018, "unit": "µM"}]}
